Earlier results in US11531207B2, “Devices, apparatus and method for providing photostimulation and imaging of structures” (The Trustees of Columbia University in the City of New York, priority 2008, dated 2022).

Details: local application ("puffing"); cited from earlier work

MNI-caged L-glutamate [MNI-glutamate]
concentration limited by the solubility of the compound in the water: 10 to 50 mM
